Experimental data as given in PubChem BioAssay (NCI).
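How tested: cells in 96-well plates exposed to compound for 48 hours at five concentrations. TGI denotes the concentration required for complete inhibition of growth.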

How the values were obtained:
Test in all cases: DTP human tumour cell line panel, 48 h
COLO 205 colon = test system: COLO 205 colon
MDA-MB-435 = test system: MDA-MB-435
HOP-62 NSCLC = test system: HOP-62 NSCLC
MCF7 breast = test system: MCF7 breast
IGROV1 ovarian = test system: IGROV1 ovarian
T-47D breast = test system: T-47D breast
HCC-2998 colon = test system: HCC-2998 colon
HCT-116 colon = test system: HCT-116 colon
K-562 leukemia = test system: K-562 leukemia
HOP-92 NSCLC = test system: HOP-92 NSCLC
CCRF-CEM leukemia = test system: CCRF-CEM leukemia
RPMI-8226 leukemia = test system: RPMI-8226 leukemia
ACHN renal = test system: ACHN renal
NCI/ADR-RES ovarian = test system: NCI/ADR-RES ovarian
U251 CNS = test system: U251 CNS
HS 578T breast = test system: HS 578T breast
CAKI-1 renal = test system: CAKI-1 renal
DU-145 prostate = test system: DU-145 prostate
SK-MEL-2 melanoma = test system: SK-MEL-2 melanoma
MALME-3M melanoma = test system: MALME-3M melanoma
OVCAR-5 ovarian = test system: OVCAR-5 ovarian
M14 melanoma = test system: M14 melanoma
SR leukemia = test system: SR leukemia
HL-60(TB) leukemia = test system: HL-60(TB) leukemia
UACC-62 melanoma = test system: UACC-62 melanoma
OVCAR-4 ovarian = test system: OVCAR-4 ovarian
SK-OV-3 ovarian = test system: SK-OV-3 ovarian
UO-31 renal = test system: UO-31 renal
NCI-H460 lung = test system: NCI-H460 lung
786-0 renal = test system: 786-0 renal
MOLT-4 leukemia = test system: MOLT-4 leukemia
SNB-19 CNS = test system: SNB-19 CNS

Measured: TGI

CN=C(/N=C1\N(C)C(C)(C)P(=O)(O)N1C)NC
> 100 µM: all assays above
